This note sets out measurements from PubChem BioAssay (NCATS).

Chains of the proteins cited; added tags and fusions are not shown.
UniProt P21728, whole entry: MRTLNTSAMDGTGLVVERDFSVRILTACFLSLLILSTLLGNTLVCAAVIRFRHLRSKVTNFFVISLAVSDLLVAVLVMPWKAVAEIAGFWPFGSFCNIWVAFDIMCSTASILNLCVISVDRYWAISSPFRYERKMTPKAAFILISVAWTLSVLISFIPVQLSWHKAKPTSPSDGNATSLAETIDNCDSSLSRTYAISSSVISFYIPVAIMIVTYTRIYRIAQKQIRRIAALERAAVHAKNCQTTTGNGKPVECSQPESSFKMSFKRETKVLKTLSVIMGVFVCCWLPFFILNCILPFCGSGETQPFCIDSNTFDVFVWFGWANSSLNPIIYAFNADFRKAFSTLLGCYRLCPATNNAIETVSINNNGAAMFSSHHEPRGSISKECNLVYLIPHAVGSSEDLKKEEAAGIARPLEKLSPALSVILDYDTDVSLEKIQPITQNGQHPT
UniProt Q96QE3, whole entry: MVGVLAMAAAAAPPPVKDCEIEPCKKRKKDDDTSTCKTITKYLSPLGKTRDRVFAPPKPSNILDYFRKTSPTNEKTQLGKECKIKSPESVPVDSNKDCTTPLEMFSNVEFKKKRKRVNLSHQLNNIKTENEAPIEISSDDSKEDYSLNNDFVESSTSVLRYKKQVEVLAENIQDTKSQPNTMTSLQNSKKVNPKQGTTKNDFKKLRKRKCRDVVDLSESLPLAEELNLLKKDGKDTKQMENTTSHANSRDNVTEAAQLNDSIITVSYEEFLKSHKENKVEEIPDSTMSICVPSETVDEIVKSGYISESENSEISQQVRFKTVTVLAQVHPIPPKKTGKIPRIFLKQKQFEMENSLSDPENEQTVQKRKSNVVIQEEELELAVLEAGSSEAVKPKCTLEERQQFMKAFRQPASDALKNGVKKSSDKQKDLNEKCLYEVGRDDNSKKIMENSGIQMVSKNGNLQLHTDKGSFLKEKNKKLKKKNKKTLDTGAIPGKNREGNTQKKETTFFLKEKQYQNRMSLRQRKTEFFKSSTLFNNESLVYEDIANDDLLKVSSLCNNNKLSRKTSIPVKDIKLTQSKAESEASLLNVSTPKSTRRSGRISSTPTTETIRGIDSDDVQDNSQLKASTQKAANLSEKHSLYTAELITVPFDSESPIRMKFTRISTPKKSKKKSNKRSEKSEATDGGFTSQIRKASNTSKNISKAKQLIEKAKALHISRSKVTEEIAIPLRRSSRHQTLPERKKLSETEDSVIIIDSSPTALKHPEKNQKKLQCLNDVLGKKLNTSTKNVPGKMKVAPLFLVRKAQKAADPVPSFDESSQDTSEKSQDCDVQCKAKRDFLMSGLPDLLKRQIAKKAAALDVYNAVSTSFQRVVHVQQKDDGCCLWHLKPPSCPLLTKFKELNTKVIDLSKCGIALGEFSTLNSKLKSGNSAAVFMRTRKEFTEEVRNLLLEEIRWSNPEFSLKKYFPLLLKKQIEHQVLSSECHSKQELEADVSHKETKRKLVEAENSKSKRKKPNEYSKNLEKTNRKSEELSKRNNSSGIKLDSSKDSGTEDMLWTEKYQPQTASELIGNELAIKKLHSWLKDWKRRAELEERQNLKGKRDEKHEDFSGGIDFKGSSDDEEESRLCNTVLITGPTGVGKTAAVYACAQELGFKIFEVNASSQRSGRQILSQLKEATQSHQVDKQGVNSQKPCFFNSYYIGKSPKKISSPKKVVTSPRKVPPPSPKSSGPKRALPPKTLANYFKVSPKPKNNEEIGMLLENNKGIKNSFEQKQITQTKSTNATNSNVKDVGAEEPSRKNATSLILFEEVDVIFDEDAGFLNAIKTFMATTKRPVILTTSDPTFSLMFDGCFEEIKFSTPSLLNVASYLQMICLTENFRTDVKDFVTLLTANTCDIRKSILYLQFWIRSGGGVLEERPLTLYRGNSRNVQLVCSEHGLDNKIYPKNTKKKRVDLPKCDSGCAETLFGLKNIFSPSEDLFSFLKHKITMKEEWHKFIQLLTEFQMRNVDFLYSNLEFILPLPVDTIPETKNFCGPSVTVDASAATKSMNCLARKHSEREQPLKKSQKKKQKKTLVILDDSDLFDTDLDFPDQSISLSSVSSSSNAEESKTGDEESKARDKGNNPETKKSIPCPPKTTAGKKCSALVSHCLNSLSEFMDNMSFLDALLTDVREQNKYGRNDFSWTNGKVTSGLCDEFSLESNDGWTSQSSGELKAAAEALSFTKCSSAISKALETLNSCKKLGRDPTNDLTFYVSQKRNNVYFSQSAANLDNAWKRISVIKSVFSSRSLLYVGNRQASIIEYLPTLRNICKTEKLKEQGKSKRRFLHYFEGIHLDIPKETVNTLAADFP
UniProt P51570, whole entry: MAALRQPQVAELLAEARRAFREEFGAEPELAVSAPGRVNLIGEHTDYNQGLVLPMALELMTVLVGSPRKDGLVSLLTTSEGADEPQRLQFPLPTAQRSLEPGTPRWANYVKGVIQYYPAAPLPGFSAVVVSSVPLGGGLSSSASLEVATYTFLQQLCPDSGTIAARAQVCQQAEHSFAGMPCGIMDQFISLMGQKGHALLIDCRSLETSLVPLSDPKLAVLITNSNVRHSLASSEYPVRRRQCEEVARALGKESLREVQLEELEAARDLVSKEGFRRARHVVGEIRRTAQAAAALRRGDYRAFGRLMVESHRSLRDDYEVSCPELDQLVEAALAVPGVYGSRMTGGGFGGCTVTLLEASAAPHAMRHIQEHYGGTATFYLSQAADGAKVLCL
UniProt O94782, whole entry, looked up: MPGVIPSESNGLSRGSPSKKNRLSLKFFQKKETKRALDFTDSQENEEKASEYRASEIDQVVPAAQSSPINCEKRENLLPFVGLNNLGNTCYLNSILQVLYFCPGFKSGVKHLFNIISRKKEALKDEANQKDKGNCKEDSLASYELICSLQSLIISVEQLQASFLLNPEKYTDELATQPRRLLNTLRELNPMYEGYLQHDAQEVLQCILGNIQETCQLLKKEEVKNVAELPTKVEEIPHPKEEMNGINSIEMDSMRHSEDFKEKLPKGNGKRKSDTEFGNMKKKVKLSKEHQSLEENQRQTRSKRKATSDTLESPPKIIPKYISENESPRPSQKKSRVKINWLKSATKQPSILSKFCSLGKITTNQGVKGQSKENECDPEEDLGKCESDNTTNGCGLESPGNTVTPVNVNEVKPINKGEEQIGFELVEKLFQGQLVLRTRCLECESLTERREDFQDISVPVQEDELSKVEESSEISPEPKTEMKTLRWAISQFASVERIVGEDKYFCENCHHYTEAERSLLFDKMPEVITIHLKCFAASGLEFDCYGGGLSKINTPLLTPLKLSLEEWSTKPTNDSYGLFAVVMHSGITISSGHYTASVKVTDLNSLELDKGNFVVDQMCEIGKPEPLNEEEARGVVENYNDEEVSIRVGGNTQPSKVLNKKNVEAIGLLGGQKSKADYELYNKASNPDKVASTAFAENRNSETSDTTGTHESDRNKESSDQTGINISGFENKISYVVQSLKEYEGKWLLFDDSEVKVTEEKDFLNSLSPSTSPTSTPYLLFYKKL

Test [1] deals with D(1A) dopamine receptor (Homo sapiens) (UniProt P21728). The test is described as follows: HTS Assay for Allosteric Agonists of the Human D1 Dopamine Receptor: Primary Screen for Potentiators (AID 488982). Also: 0% is about no effect. The note with it: D1 receptor cells, potentiator mode, cAMP signal; at 8.37 µM (top of the series).
Test [2] has the same target. Briefly: HTS Assay for Allosteric Agonists of the Human D1 Dopamine Receptor: Primary Screen for Antagonists (AID 488983).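 Also: calcium flux response to an EC80 dopamine challenge measured with no-wash dye; % is scaled to controls: 0 for no effect and ±100 for the full control effect; nearly all actives have a fitted effect of over 65% in size.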 The note with it: D1 receptor cell assay, antagonist mode, qHTS titration; at 41.8 µM (top of the series).
A short description of test [3]: Validation screen for small molecules that induce genotoxicity in human embryonic kidney (HEK293T) cells expressing luciferase-tagged ELG1 (AID 493106). Also: 0% is about no effect. The settings on record: luminescence; at 46.1 µM (top of the series). A digest of the protocol: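 ELG1-luciferase reporter readout (ONE-Glo, 30 min, room temperature) after 16 hr compound treatment at 37 °C of HEK293T cells at 2,000 per well. Rising luminescence flags genotoxic stress.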

For test [4], the target named is ATPase family AAA domain-containing protein 5 (Homo sapiens) (UniProt Q96QE3). Briefly: Validation screen for small molecules that inhibit ELG1-dependent DNA repair in human embryonic kidney (HEK293T) cells expressing luciferase-tagged ELG1 (AID 493107).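 Also: % is scaled to controls: 0 for no effect and ±100 for the full control effect; inhibitors lower the ELG1-luciferase luminescence signal; nearly all actives have a fitted effect of over 70% in size.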 The note with it: HEK293T ELG1-luciferase level, luminescence, 5-fluorouridine co-treatment, 16 h; at 46.1 µM (top of the series). The gist of the method: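 Luciferase read-out, ONE-Glo, 30 min at room temperature, follows 16 h co-exposure at 37 C of compound and the DNA-damaging agent 5-fluorouridine. Cells: HEK293T with ELG1-luciferase fusion, 2,000 per well, DMSO as vehicle.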

Test [5] in a line: Nrf2 qHTS screen for inhibitors: Validation (AID 493153; active = well fitted inhibition curve with a large enough effect in the main read-out, with a control signal flat, not every such curve was filed as active;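 also: A549 cells with ARE-driven firefly luciferase reporter reporting Nrf2 activity; % of control where 0% means no effect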). The note with it: A549 ARE-Fluc reporter, luciferase luminescence, 18-24 h; at 46.1 µM (top of the series). The gist of the method:
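Concentration-response on A549 ARE_Fluc reporter cells exposed 18-24 h at 37 C, 5% CO2. Cytotoxicity read first by CellTiter-Fluor fluorescence (Ex 405/Em 525), then Nrf2 inhibition by BugLite luminescence after 15 min.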
For orientation: In qHTS, concentration-response curves come from the screen itself.

Test [6] can be described thus: qHTS for Inhibitors of Cell Surface uPA Generation: Validation Assay (AID 493164).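 Also: RAW 264.7 macrophage cells exposed to compound for 18 h; 0% is about no effect.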 The note with it: mouse cells, plasminogen activation; at 38.3 µM (top of the series). A digest of the protocol:
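ATP-Lite luminescence read-out: ATP remains high when uPA activity-dependent LF translocation into the cytoplasm is blocked. RAW 264.7 cells, 18 h compound exposure at 37 C; 7-point titration, 2.45 nM to 38.3 uM final.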

Test [7] concerns the target Galactokinase (Homo sapiens) (UniProt P51570). Briefly: qHTS Validation Assay for Inhibitors of Human Galactokinase (GALK) (AID 493189). Also: 0% is about no effect. The settings on record: purified human GALK enzyme activity, qHTS 7-point titration; at 57.5 µM (top of the series). An excerpt:
NIH Molecular Libraries Probe Production Centers Network [MLPCN]
NIH Chemical Genomics Center [NCGC]
Assay Submitter (PI): Kent Lai (University of Utah School of Medicine, 50 N Mario Capecchi Drive, Salt Lake City, UT 84132)
Inherited deficiency of galactose-1-phosphate uridyltransferase (GALT) can result in a potentially lethal disorder called Classic Galactosemia (OMIM 230400). Several lines of evidence indicate that an elevated level of galactose-1-phosphate (gal-1-p), the product of galactokinase (GALK), is a major, if not sole, pathogenic mechanism in patients with classic galactosemia. Therefore, finding inhibitors of GALK is a potential novel therapy for this inherent metabolic disease and is the long term goal of this project.
GALK (provided by the assay submitter) was assayed using ATP and D-(+)-Galactose (Sigma-Aldrich cat# G0750) as substrates. […]
Three uL/well of ATP-buffer solution (35 uM ATP, 20mM HEPES pH8.0, 5 mM MgCl2, 60 mM NaCl, 1 mM DTT, 0.01% BSA final concentration) was dispensed into 1536-well, assay plates (Greiner, solid white medium-binding plates) with Aurora Discovery BioRAPTR Flying Reagent Dispenser (FRD; Beckton-Dickenson). […] Luminescence was detected with the ViewLux plate reader (Perkin Elmer, Waltham, MA) after 10 min incubation using a 1 sec exposure time and 2x binning.

Test [8] is described as follows: Validation screen for small molecules that induce DNA re-replication in SW480 colon adenocarcinoma cells (AID 504364). Also: 0% is about no effect. The settings on record: DNA re-replication phenotype (high-content imaging); at 46.1 µM (top of the series). A digest of the protocol:
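Image-based DNA content read-out: Hoechst stain 40 min, total nuclear fluorescence intensity (ex 405 nm, em 500-530 nm) after 48 h compound exposure of 250 SW480 cells/well at 37 C, 5% CO2, versus DMSO vehicle.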

Test [9] is described as follows: Inducers of the Endoplasmic Reticulum Stress Response (ERSR) in human glioma: Validation (AID 504836). Also: 0% is about no effect. The settings on record: human glioma cells, ER stress response reporter; at 38.3 µM (top of the series). The source says:
Primary protein unfolding takes place for many diseases, including diabetes and hypoxia, , and triggers a reaction in the cells called ER stress response (ERSR). ). ERSR is designed as a repair mechanism, but ultimately leads to cell death via apoptosis if conditions triggering protein unfolding persist (1). The molecular clue to ERSR activation is the enhancement of the expression of key molecular chaperones, including the glucose regulated protein (GRP) 78. GRP78 is the main sensor for protein folding and the main actuator of the ERSR.
In a collaboration between the Southern Research Institute and the NIH Chemical Genomics Center, a cell based screen was developed that reliably uses GRP78 as a sensor to identify small molecules as inducers of ERSR. In resting conditions, GRP78 binds proteins and acts as a natural repressor. […]
Stable transfected human glioma cell line, U87-MG, are dispensed at density 1000 cells/well into Greiner white solid bottom 1536-well assay plates. […] The assay plates will be incubated for 16 hours and developed by adding appropriate quantities of the Promega Bright Glo reagent. The plates will be incubated at room temperature for 10 minutes prior to being transferred into a ViewLux high-throughput CCD imager (PerkinElmer), wherein end-point measurements of luminescence are acquired.

In test [10] the target is Ubiquitin carboxyl-terminal hydrolase 1 (Homo sapiens) (UniProt O94782). Briefly: Inhibitors of USP1/UAF1: Pilot qHTS (AID 504865). Also: nearly all actives have a fitted effect of over 35% in size. Also: potency is read from the fitted curve at half-maximal effect.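 As to activity change, negative = inhibition: rhodamine fluorescence freed from ubiquitin-rhodamine substrate followed over time; top concentration of the series differs between compounds; % is scaled to controls: 0 for no effect and ±100 for the full control effect.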 The note with it: purified USP1/UAF1, Ub-rhodamine cleavage fluorescence; series mostly up to 114 µM.

Values joined by “and” are separate entries in the source; they are usually repeats but may differ in a detail not shown here. Identical values can stand only once. The list shows a part of the results, in another mix than the full data. Results filed as inconclusive are left out. Active and inactive are the calls of the source. Unless noted, calls follow the shape of the dose curve; as a rule, active = well fitted curve in the direction sought with a large enough effect; inconclusive = small, poorly fitted or top-dose-only effect, or another doubt; inactive = no such curve, though single readings can be large; an effect the other way counts as inactive or inconclusive.

In the case of `N#[O+].[C-]#N.[C-]#N.[C-]#N.[C-]#N.[C-]#N.[Fe+2].[Na+].[Na+]`, the activity, positive = potentiation in test [1] was inactive: -1.02%. Besides, the activity change, negative = inhibition is inactive: 2.26% in test [2], inactive: -21.1% in [5] and inactive: -4.15% in test [7]. Besides, in [3], the activity change, positive = ELG1 induction was inactive: -8.25%. In addition, the activity change, negative = decrease in test [4] is inactive: 6.52%. For the same compound, the activity change in [6] was inactive: 0.633%. In addition, the activity (re-replication induction) in test [8] is inactive: -6.99%. For the same compound, the activation in test [9] was inactive: -0.556%. Besides, the Potency in [10] was active: 22.4 µM and active: 20 µM.

Consider `O=[N+]([O-])c1cccc([N+](=O)[O-])c1`, for which the Potency entry in [10] is “inactive”.

In the case of `OCCSCCO`, the Potency entry in test [10] was “inactive”.

Consider `CC(C)OP(=O)(F)OC(C)C`, for which the Potency entry in test [10] is “inactive”.

Take `CN(C)CCS`: the Potency entry in test [10] is “inactive”.

`C/C1=C2N=C(/C=C3N=C(/C(C)=C4\[N-][C@@](C)([C@H]5N=C1[C@@](C)(CCC(=O)NC[C@H](C)OP(=O)([O-])O[C@@H]1[C@H](O)[C@H](n6cnc7cc(C)c(C)cc76)O[C@@H]1CO)[C@@H]5CC(N)=O)[C@](C)(CC(N)=O)[C@H]4CCC(N)=O)[C@@](C)(CC(N)=O)[C@@H]\3CCC(N)=O)C(C)(C)[C@@H]/2CCC(N)=O.[C-]#N.[Co+3]`: the Potency result in [10] is “inactive”.

Consider `CCN(CCCl)Cc1ccccc1C`, for which, in test [10], the Potency entry was “inactive”.
